Experimental findings from patent US5270311A (dated 1993) are described below.

The chains behind the UniProt entries cited, without tags or fusion partners.
UniProt P47745, whole entry: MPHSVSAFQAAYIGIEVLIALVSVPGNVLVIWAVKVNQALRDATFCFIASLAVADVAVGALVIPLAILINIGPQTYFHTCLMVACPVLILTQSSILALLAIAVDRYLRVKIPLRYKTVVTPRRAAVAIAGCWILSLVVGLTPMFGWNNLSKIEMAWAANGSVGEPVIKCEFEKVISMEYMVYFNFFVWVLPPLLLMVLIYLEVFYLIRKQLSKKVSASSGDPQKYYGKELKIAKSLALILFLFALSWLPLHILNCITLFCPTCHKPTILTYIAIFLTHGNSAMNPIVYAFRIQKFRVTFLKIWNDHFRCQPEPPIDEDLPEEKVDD

This experiment has as its target adenosine receptor known as A1 (Cavia porcellus, UniProt P47745). The experiment can be described thus: Guinea-pig Atrial Bradycardic Test.

The structures appear in SMILES notation.

Consider `Cn1c(=O)c2[nH]cnc2n(C)c1=O` [1,3-dimethylxanthine, reference compound], for which the Kb was roughly 10 µM.
